scFv variants of Ab-95 (light chain) against a SARS-CoV-2 spike peptide

Binding partner: SARS-CoV-2 spike HR2 peptide, sequence PDVDLGDISGINAS.

Parent: Ab-95, a human scFv built as VH, a (GGGGS)3 linker, VL. Only the CDRs of the light chain vary.
VH: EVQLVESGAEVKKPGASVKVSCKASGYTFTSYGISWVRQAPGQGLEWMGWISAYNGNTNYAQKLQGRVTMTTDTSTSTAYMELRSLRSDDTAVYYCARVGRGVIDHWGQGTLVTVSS
VL: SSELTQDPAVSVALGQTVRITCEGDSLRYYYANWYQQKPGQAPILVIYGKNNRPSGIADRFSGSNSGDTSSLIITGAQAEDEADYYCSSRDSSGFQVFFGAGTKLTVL

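Phage display of a naive human antibody library on the peptide gave the parent. Variants in AAYL52 differ from the parent at up to three CDR positions; double and triple changes were sampled at random. The assay is AlphaSeq: two haploid yeast populations carry antibody and antigen on their surface. The frequency of each diploid, read from paired DNA barcodes, reflects how well the two displayed proteins bind. A regression on co-assayed BCL2-family reference pairs converts the normalised counts of each replicate to an apparent Kd. Mating was done three times.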

Substitutions are numbered in sequence along the VL above, starting at 1 (not Kabat).
The read-out is the apparent dissociation constant on a log10 scale (nM): the lower, the stronger.
The mean shown is taken over the replicates in which the pair was detected.
Where no diploid with the target was found in any replicate, the entry reads "nd": below detection, most likely a poor binder, though not proof of it.

changes | mean, log10 nM | detected
G49S/R90E/F95M | 2.69 | 1 of 3
Y31W/K50W/P54H | 5.05 | 1 of 3
E23A/K50G/P54T | 2.16 | 3 of 3
S26D/R28A/Y30S | 1.02 | 3 of 3
Y31P/N51G/S55V | 1.25 | 3 of 3
L27E/R53H/P54R | 4.91 | 1 of 3
Y31L/D91L | nd | 0 of 3
S26H/R28E/R53V | 3.66 | 2 of 3
A32F/R90I/F98E | nd | 0 of 3
E23I/D91L/S92K | 3.35 | 1 of 3
Y31P/D91P/S93V | 2.77 | 3 of 3
S26M/S89M/S92F | 3.19 | 3 of 3
E23C/L27I/P54E | 3.31 | 3 of 3
E23D/S26K/S92F | 3.72 | 1 of 3
R53N/R90P/S93P | 4.24 | 3 of 3
D25V/R28A/N51P | 3.91 | 1 of 3
E23C/N51F/F98Y | 5.58 | 1 of 3
Y31F/G49S/F98Q | 3.71 | 1 of 3
Y30I/P54Q/Q96A | 4.59 | 3 of 3
D25Q/S92F/Q96V | 4.77 | 1 of 3
N52M/D91I/G94S | 2.21 | 3 of 3
N51F/G94D/Q96F | 3.86 | 2 of 3
Y29V/G94Y/V97A | 2.78 | 3 of 3
L27D/R28N | 3.61 | 2 of 3
K50G/P54M/S93M | 3.85 | 3 of 3
Y29T/S55V/V97H | 5.33 | 2 of 3
E23I/N33I/K50E | 4.34 | 1 of 3
D25Q/K50Q/R53F | 3.83 | 3 of 3
L27A/Y29C | 3.41 | 1 of 3
S93I/F95G | 2.89 | 3 of 3
G49R/Q96H | 3.89 | 3 of 3
R28K/Y30H/K50H | 1.11 | 3 of 3
G24D/K50H/N52W | 5.48 | 1 of 3
D25N/K50D/R90S | 4.09 | 3 of 3
G24K/R90F/F95R | nd | 0 of 3
Y31S/N51L/R90V | 4.36 | 3 of 3

Continued, with the values leading:

mean, log10 nM | detected | changes
4.23 | 1 of 3 | G24T/S89D/S92F
1.67 | 3 of 3 | Y31M/S88P/S89Y
2.84 | 1 of 3 | Y31I/N51M/R90I
nd | 0 of 3 | G24W/D25K/N51D
3.55 | 3 of 3 | G24H/D25Y
3.61 | 2 of 3 | D25K/S26Q/D91H
5.98 | 2 of 3 | R53C/G94P/F95H
4.19 | 2 of 3 | Y30W/N52L/F98D
3.75 | 3 of 3 | L27S/R28H/R53V
1.80 | 3 of 3 | S89M/V97I/F98P
3.53 | 1 of 3 | L27S/N52I/S89E
2.95 | 3 of 3 | L27N/S55P/F98Y
2.71 | 3 of 3 | E23M/L27M/G94F
2.95 | 3 of 3 | D25A/S89L/F95T
3.66 | 3 of 3 | S26H/P54H/S92P
1.57 | 3 of 3 | S26H/L27N/Y30N
1.51 | 3 of 3 | Y30A/G49N/N51D
4.10 | 3 of 3 | L27V/K50Y/S88N
nd | 0 of 3 | R90W/S93Q/F98S
3.90 | 1 of 3 | A32G/R53A/F98V
4.12 | 2 of 3 | S26I/S93C/G94I
1.87 | 3 of 3 | Y30R/N52Y/S92K
4.87 | 1 of 3 | S26C/G49S/V97Q
3.81 | 1 of 3 | R28C/A32G/S93F
3.72 | 1 of 3 | N33M/R53N/P54T
4.58 | 1 of 3 | D25N/R90D/D91I
3.36 | 1 of 3 | Y30L/R53K/P54H
3.82 | 3 of 3 | D25K/A32H/K50T
3.55 | 2 of 3 | R53V/S89F/Q96R
3.27 | 3 of 3 | E23R/Q96A/F98C
2.73 | 3 of 3 | Y30M/S88C/F98A
nd | 0 of 3 | D25P/G49Q/R90L
3.84 | 1 of 3 | Y29E/G49E/D91P
3.04 | 3 of 3 | R28G/D91T/F98R
3.14 | 3 of 3 | R28I/Y31R/K50R
2.93 | 3 of 3 | S26G/S89T/F95V

Three control strains display no target. For library AAYL52, 28% of the pairings with them gave a signal, with a median of 3.91 and one signal in twenty below 2.90, so weak values seen in few replicates may be background.

Values reported by Engelhart et al. 2022, doi:10.1038/s41597-022-01779-4 (FLAb copy).